Values quoted from earlier work as cited in patent US4595695A, “1'-ethoxycarbonyloxyethyl ester of valproic acid, its preparation and pharmaceutical compositions containing it” (Teva Pharmaceutical Industries Ltd., priority 1983, dated 1986).

Conditions: man versus dog; cited from earlier work

CCCC(CCC)C(=O)O [VPA, di-n-propylacetic acid]
VPA half-life time in man relative to dog: three to eight times longer
